Marks after values point to notes of the source that are not given here.

Holding throughout (type): in vivo, BALB/c mice
Experiment [1] relates to NK cell. The experiment can be described thus: NK cell cytotoxicity activity test (YAC-1 target cells, MTT) on spleen cells of treated mice. To be noted: IFN-γ and IL-2 groups 3×10^5 IU/kg/day, X ± SD. As to the method:
The above substances were all dissolved in 0.5 ml saline and injected intraperitoneal (i.p.) for 15 continuous days, once per day.
Ten mice per group. The day after the last test substance administration, the mice were sacrificed by cervical dislocation. The spleen was isolated aseptically and manually dispersed in cold D-Hank's solution using an injection needle. The dispersed cell suspension was further sieved through a 100 gauge 150 μm diameter stainless steel sieve. After centrifugation at 200 g for 10 minutes, the supernatant was discarded. The cell pellet was re-suspended in 10 volume of Tris-NH4Cl buffer and then kept standing still for 10 minutes at room temperature. The suspended cells were collected by centrifugation at 150 g for 10 minutes. The cells were washed 2-4 times with cold D-Hank's solution by re-suspending and collecting by centrifugation with condition as described above. The washed cells were then diluted to the desired cell densities by RPMI-1640 culture medium, containing 10% fetal bovine serum.
Mice spleen cells were prepared to 4×10^6/ml as described in section 1.1 above. Target cells YAC-1 were brought to log phase and adjusted to 1×10^5/ml. Using a 96 wells cell culture plate, 100 μl mouse spleen cells and 100 μl culture medium were added to the control well containing only the spleen cells; 100 μl target cells and 100 μl culture medium were added to the control well containing only target cells; 100 μl mouse spleen cells and 100 μl target cells were added to the NK activity assay well. Three parallel sets of the above were prepared per mouse.
Samples were centrifuged at 150 g for 10 minutes to collect the cells. The supernatant was discarded and 50 μl/well MTT of 1 mg/ml was added. The reaction mixture was then shaken for 2 minutes, and incubated at 37° C., 5% CO2 for 4 hours. The supernatant was discarded after centrifugation at 150 g for 10 minutes. 120 μl 40 mM HCl-2-propanol was added and shaken for 3 minutes. An ELISA reader was used to obtain OD570nm of each well referenced at 630 nm.

Experiment [2] concerns anti-SRBC antibody. The experiment can be described thus: Sheep Red Blood Cell (SRBC) hemolysis test, anti-SRBC antibody formation. To be noted: SRBC on day 12, IFN-γ and IL-2 groups 3×10^5 IU/kg/day, X ± SD. As for the experimental part:
Sheep red blood cells (SRBC) were prepared by collecting blood from cervical vein and put into a sterile flask with glass beads. The flask was shaken for 3 minutes and the blood then mixed with Alsever solution (glucose 2.05 g, NaCl 0.4 g, […] 0.8 g, adjust to 100 ml with distilled water) and stored at 4° C. Immediately before use, samples were centrifuged at 130 g, 5 minutes to collect the SRBC. The cells were washed two times by re-suspension and centrifugation in normal saline. Then the cell pellet was collected by centrifugation at 180 g for 10 minutes and re-suspended in saline to make the final working SRBC suspension, 2% (v/v).
Complement was prepared by adding 10 volumes of fresh Cavy serum into one volume centrifuge packed SRBC, and then gently shaking for 30 minutes at 4° C. The SRBC was removed by centrifugation at 200 g for 10 minutes. 10 volumes of normal saline were added to obtain the working complement solution.
The BALB/c mice were randomly divided into the peptide group, IFN group, IL-2 group, and saline group, 10 mice per group. The test substances were administered as described in section 1.1, plus intraperitoneal injection 0.2 ml SRBC per mouse on day 12. On the day after the last test substance administration (day 16), blood was collected from the eye canthus and left at room temperature for one hour for serum exudation. After centrifugation at 200 g for 10 minutes, the serum was diluted by 500 times with normal saline.
To 1 ml diluted mouse serum of each mouse, 0.5 ml SRBC suspension was added. Ice cold. Then 1 ml working complement solution was added and incubated at 37° C. water bath for 10 minutes. Reactions were terminated by ice cold. Samples were then centrifuged at 200 g for 10 minutes to obtain the supernatant.
To 1 ml of this supernatant, 3 ml Drabkin solution was added and left at room temperature for 10 minutes. OD540nm was obtained.
Reference OD540nm was obtained by mixing 0.25 ml SRBC suspension with Drabkin solution to 4 ml and placed at room temperature for 10 minutes before OD540nm was taken. Sample serum index=(OD540nm of test sample[…]reference OD540nm)×500 3. The Effect of Peptides on the Phagocytosis Function of Mononuclear Phagocyte and the Weight of Immune Organ^[8,9].

For experiment [3], the system named is S180 sarcoma cells. Briefly: growth of transplanted S180 sarcoma. To be noted: 3 × 10^5 IU/kg i.p. once per day. As for the experimental part: Intraperitoneal injection, once per day. […] Treatment of all groups with testing substance lasted for 30 days or until the animal died unless otherwise specified.
Stock S180 sarcoma cells were incubated in DMEM/F12 medium supplemented with 10% fetal bovine serum, 37° C., 5% CO2 for 72 hrs, then washed 3-4 times with Hank's solution at room temperature. Adjust the cell concentration to 1-2×10^9 per liter with Hank's solution. […] The mice were killed by cervical vertebra dislocation. Vigorously growing and non-disrupted tumor masses were harvested and washed clean with sterile saline. The tissue was dispersed in saline to a homogenous cell suspension, in a ratio of 1 g tissue to 4 ml saline. The sarcoma bearing mice model was prepared with an injection of 0.2 ml cell suspension through the armpit. Administration of test substance treatment started as described in section Method 1.
After the phagocytosis index study, the mice were killed by cervical vertebra dislocation. The liver, spleen, and cancer tissue were dissected, blotted dry, and weighed.
2.2 The Tumor Growth Inhibition Index was Calculated According to the Following Formula: Tumor growth inhibition index=(mean tumor weight of control group−mean tumor weight of treatment group)÷mean tumor weight of control group 3.

Setting [4] is: peptide 0.5 μg/kg/day i.p. 15 days.
[5] abbreviates: peptide 5 μg/kg/day i.p. 15 days.
[6] abbreviates: peptide 50 μg/kg/day i.p. 15 days.
The mark [7] stands for this setting: peptide 500 μg/kg/day i.p. 15 days.

Regarding “IL-2: recombinant human interleukin-2, Shanghai Huaxin Biotech Inc.; positive control immunostimulant”, the “NK cell cytotoxic activity (NK cell activity index)” value in experiment [1] (setting [4]) is given as 74 ± 10 %; in experiment [1] (setting [5]), 80 ± 8 %; in experiment [1] (setting [6]), 74 ± 8 %; in experiment [1] (setting [7]) it was 77 ± 8 %. Also, the “anti-SRBC antibody formation (sample serum index)” value in experiment [2] (setting [4]), in experiment [2] (setting [5]), in experiment [2] (setting [6]) and in experiment [2] (setting [7]) was 71 ± 11* Unit throughout. Further, the Tumor weight in experiment [3] stood at 0.69 ± 0.37 g. The Tumor inhibition index in experiment [3] (versus saline group) is 46.2%.

For the origin of these results see US7718768B2, “Biologically active peptide [sequence]” (CMS Peptides Patent Holding Company Limited, priority 2001, dated 2010).
